Assay [1] has as its target T1, Bfl-1 (Homo sapiens, UniProt Q16548). In words: Bfl-1 TR-FRET assay (FITC-Bid, Tb-anti-GST antibody). The assay is classed as binding. Particulars: read-out: Bfl-1 TR-FRET IC50; Tables 7-8; Avg where the cell lists several determinations. (Time-resolved FRET reads energy transfer from a long-lived donor to a nearby acceptor.)
Assay [2] deals with T1, Bfl-1. Kind of assay: Bfl-1 fluorescence polarization assay (FPA/FP), competition with FITC-Bid BH3 peptide. The assay is classed as binding. Particulars: read-out: Bfl-1 FPA IC50; Tables 7-8; Avg where the cell lists several determinations. A general note: In fluorescence polarisation assays a small probe gives low polarisation when free and higher when bound to something large.

The chains behind the UniProt entries cited, without tags or fusion partners. Residues count along the entry.
UniProt Q16548, 1-155 limits assumed: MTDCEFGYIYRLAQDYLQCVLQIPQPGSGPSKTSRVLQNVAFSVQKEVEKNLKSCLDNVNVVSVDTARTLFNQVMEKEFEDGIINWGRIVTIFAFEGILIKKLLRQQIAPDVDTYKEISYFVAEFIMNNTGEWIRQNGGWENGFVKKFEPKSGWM

Some results are limits rather than exact numbers.

With `O=C1C(Cl)=C(N2CCOCC2)C(=O)N1c1cccc(Cl)c1`, the IC50 (in general, the midpoint of a concentration-inhibition curve) worked out at 6.4 µM at Bfl-1 [1] and 8.5 µM on Bfl-1 [2].
Turning to `O=C1C(Cl)=C(N2CCOCC2)C(=O)N1c1ccccc1Cl`, the IC50 at Bfl-1 [1] is 5.8 µM; at Bfl-1 [2] it was more than 10 µM.

(Values after patent US20090069324A1, “CHEMICAL INHIBITORS OF BFL-1 AND RELATED METHODS” (The Burnham Institute, priority 2007, published 2009).)
